Source: PubChem BioAssay (NCI)
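Test compounds were applied to cells in 96-well plates for 48 hours at 5 doses. TGI: concentration producing complete growth inhibition.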

Assays:
Assay in all cases: NCI-60 cell line screen, 48 h
RPMI-8226 leukemia = system: RPMI-8226 leukemia
CCRF-CEM leukemia = system: CCRF-CEM leukemia
SF-268 CNS = system: SF-268 CNS
CAKI-1 renal = system: CAKI-1 renal
HCT-15 colon = system: HCT-15 colon
LXFL 529 NSCLC = system: LXFL 529 NSCLC
SK-OV-3 ovarian = system: SK-OV-3 ovarian
DMS 114 small cell lung = system: DMS 114 small cell lung
OVCAR-3 ovarian = system: OVCAR-3 ovarian
MOLT-4 leukemia = system: MOLT-4 leukemia
HT29 colon = system: HT29 colon
K-562 leukemia = system: K-562 leukemia
SN12C renal = system: SN12C renal
NCI-H23 lung = system: NCI-H23 lung
U251 CNS = system: U251 CNS
HCC-2998 colon = system: HCC-2998 colon
UO-31 renal = system: UO-31 renal
UACC-62 melanoma = system: UACC-62 melanoma
OVCAR-4 ovarian = system: OVCAR-4 ovarian
SW-620 colon = system: SW-620 colon
KM12 colon = system: KM12 colon
XF 498 CNS = system: XF 498 CNS
NCI-H226 lung = system: NCI-H226 lung
NCI-H460 lung = system: NCI-H460 lung
SNB-78 CNS = system: SNB-78 CNS
786-0 renal = system: 786-0 renal
NCI-H322M lung = system: NCI-H322M lung
RXF-631 renal = system: RXF-631 renal
KM20L2 colon = system: KM20L2 colon
M14 melanoma = system: M14 melanoma
LOX IMVI melanoma = system: LOX IMVI melanoma
M19-MEL melanoma = system: M19-MEL melanoma
DLD-1 colon = system: DLD-1 colon
MALME-3M melanoma = system: MALME-3M melanoma
SF-295 CNS = system: SF-295 CNS
SK-MEL-2 melanoma = system: SK-MEL-2 melanoma
SK-MEL-28 melanoma = system: SK-MEL-28 melanoma
TK-10 renal = system: TK-10 renal
HCT-116 colon = system: HCT-116 colon
OVCAR-5 ovarian = system: OVCAR-5 ovarian
SR leukemia = system: SR leukemia
HOP-18 NSCLC = system: HOP-18 NSCLC
OVCAR-8 ovarian = system: OVCAR-8 ovarian
SK-MEL-5 melanoma = system: SK-MEL-5 melanoma
A549 NSCLC = system: A549 NSCLC
RXF 393 renal = system: RXF 393 renal
IGROV1 ovarian = system: IGROV1 ovarian
UACC-257 melanoma = system: UACC-257 melanoma
HOP-92 NSCLC = system: HOP-92 NSCLC
SF-539 CNS = system: SF-539 CNS
COLO 205 colon = system: COLO 205 colon
ACHN renal = system: ACHN renal
EKVX NSCLC = system: EKVX NSCLC

`CC1=CC2OC3CC(OC(=O)/C=C/C=C/C(OCCC4=CC(=O)OC4)C(C)O)C(C)(C2(CO)CC1)C31CO1` (stereo not drawn) gave a TGI (RPMI-8226 leukemia) of over 100 µM, a TGI (CCRF-CEM leukemia) of 7.63 µM and a TGI (SF-268 CNS) of 17.4 µM. It also gave a TGI (CAKI-1 renal) of 22.1 µM, a TGI (HCT-15 colon) of 7.73 µM and a TGI (LXFL 529 NSCLC) of 4.79 µM. It also gave a TGI (SK-OV-3 ovarian) of 51.6 µM, a TGI (DMS 114 small cell lung) of 15.3 µM and a TGI (OVCAR-3 ovarian) of 6.47 µM. For the same compound, the TGI (MOLT-4 leukemia) was 7.39 µM, the TGI (HT29 colon) was 33.2 µM and the TGI (K-562 leukemia) was 9.45 µM. The TGI (SN12C renal) was 23.1 µM, the TGI (NCI-H23 lung) was 4.83 µM and the TGI (U251 CNS) was 7.24 µM. For the same compound, the TGI (HCC-2998 colon) was 8.55 µM, the TGI (UO-31 renal) was 44 µM and the TGI (UACC-62 melanoma) was 5.9 µM. It also gave a TGI (OVCAR-4 ovarian) of over 100 µM, a TGI (SW-620 colon) of 23.7 µM and a TGI (KM12 colon) of 34.9 µM. It also gave a TGI (XF 498 CNS) of 5.97 µM, a TGI (NCI-H226 lung) of 12.8 µM and a TGI (NCI-H460 lung) of 11.3 µM. The TGI (SNB-78 CNS) was over 100 µM, the TGI (786-0 renal) was 6.13 µM and the TGI (NCI-H322M lung) was 44.1 µM. The TGI (RXF-631 renal) was 27.6 µM, the TGI (KM20L2 colon) was 10.7 µM and the TGI (M14 melanoma) was 2.9 µM. The TGI (LOX IMVI melanoma) was 7.51 µM, the TGI (M19-MEL melanoma) was 13.2 µM and the TGI (DLD-1 colon) was 6.11 µM. It also gave a TGI (MALME-3M melanoma) of 4.28 µM, a TGI (SF-295 CNS) of 13.1 µM and a TGI (SK-MEL-2 melanoma) of 6.84 µM. For the same compound, the TGI (SK-MEL-28 melanoma) was 6.42 µM, the TGI (TK-10 renal) was 14.8 µM and the TGI (HCT-116 colon) was over 100 µM. For the same compound, the TGI (OVCAR-5 ovarian) was 26.6 µM, the TGI (SR leukemia) was 6.66 µM and the TGI (HOP-18 NSCLC) was 74.3 µM. The TGI (OVCAR-8 ovarian) was 17.5 µM, the TGI (SK-MEL-5 melanoma) was 1.87 µM and the TGI (A549 NSCLC) was 17.3 µM. It also gave a TGI (RXF 393 renal) of 5.28 µM, a TGI (IGROV1 ovarian) of 6.85 µM and a TGI (UACC-257 melanoma) of 17.2 µM. It also gave a TGI (HOP-92 NSCLC) of 5.63 µM, a TGI (SF-539 CNS) of 4.32 µM and a TGI (COLO 205 colon) of 8.97 µM. The TGI (ACHN renal) was 36.1 µM and the TGI (EKVX NSCLC) was 9.17 µM.
